According to paper PMC5573420, “Correlation between human ether‐a‐go‐go‐related gene channel inhibition and action potential prolongation” (British Journal of Pharmacology, 2017):

System: hiPSC-CMs
Assay: Optical measurement of action potential duration (APD90) in hiPSC-CMs using voltage-sensitive dye di-4-ANEPPS
Details: Homo sapiens

`Cc1ccc(CCN(C)CCOc2ccc(C)cc2)cc1` was tested, and the activity at 0.001 µM (0.5 h, read-out: Changes in APD90 in hiPSC-CMs, 1 nM, 30 min exposure) was 122%, the activity at 0.01 µM (0.5 h, read-out: Changes in APD90 in hiPSC-CMs, 10 nM, 30 min exposure) was 96% and the activity at 0.03 µM (0.5 h, read-out: Changes in APD90 in hiPSC-CMs, 30 nM, 30 min exposure) was 101%. The activity at 0.1 µM (0.5 h, read-out: Changes in APD90 in hiPSC-CMs, 100 nM, 30 min exposure) was 112%, the activity at 0.3 µM (0.5 h, read-out: Changes in APD90 in hiPSC-CMs, 300 nM, 30 min exposure) was ~170% and the activity at 1 µM (0.5 h, read-out: Changes in APD90 in hiPSC-CMs, 1000 nM, 30 min exposure) was 263%. For the same compound, the EC (50% APD prolongation) (read-out: D150 (concentration that prolongs the AP by 50%)) was 0.215 µM.
